Drawing on article PMC8062000, “High-throughput screening of the ReFRAME, Pandemic Box, and COVID Box drug repurposing libraries against SARS-CoV-2 nsp15 endoribonuclease to identify small-molecule inhibitors of viral activity” (PLoS ONE, 2021), this text covers inhibition for one compound.

The target in the assay is SARS-CoV-2 nsp15 endoribonuclease (endoU) (Severe acute respiratory syndrome coronavirus 2, UniProt P0DTD1). Kind of assay: biochemical. As to conditions: read-out: 1° FRET Assay % inhibition.

`COc1cccc2c1C(=O)c1c(O)c3c(c(O)c1C2=O)C[C@@](O)(C(=O)CO)C[C@@H]3O[C@H]1C[C@H](N)[C@H](O)[C@H](C)O1` [Doxorubicin]: the inhibition at 10 µM came out at 57%.
